Experimental data as given in PubChem BioAssay AID1376 (SRMLSC, 2008).
This is a selection; strong and weak results do not stand in their true shares. Entries with a potency or affinity are not part of this list. Some results for these compounds are left out of this collection, so the calls shown say nothing about other tests. Activity calls are given as the source filed them. Cut-off read from the data, not from the text of the source: active = inhibition above about 13%; inconclusive = no clear call, values can overlap the other calls; inactive = below that.

Chains of the proteins cited; added tags and fusions are not shown.
UniProt P9WMN3, whole entry: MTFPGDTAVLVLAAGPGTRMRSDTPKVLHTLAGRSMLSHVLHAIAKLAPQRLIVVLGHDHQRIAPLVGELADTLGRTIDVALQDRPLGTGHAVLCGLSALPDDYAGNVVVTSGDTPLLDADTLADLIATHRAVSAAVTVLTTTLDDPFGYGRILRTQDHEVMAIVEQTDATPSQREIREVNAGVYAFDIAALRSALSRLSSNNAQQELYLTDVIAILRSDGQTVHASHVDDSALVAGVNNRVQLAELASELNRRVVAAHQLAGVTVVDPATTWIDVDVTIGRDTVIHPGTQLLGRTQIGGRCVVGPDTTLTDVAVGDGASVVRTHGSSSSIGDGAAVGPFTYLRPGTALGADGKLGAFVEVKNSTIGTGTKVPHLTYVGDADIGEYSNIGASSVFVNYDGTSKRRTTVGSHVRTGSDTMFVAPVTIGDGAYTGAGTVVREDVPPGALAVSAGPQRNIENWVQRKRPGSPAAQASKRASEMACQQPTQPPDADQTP

Each compound was assayed against Bifunctional protein GlmU (Mycobacterium tuberculosis (strain ATCC 25618 / H37Rv)) (UniProt P9WMN3) (assay: inhibition of mycobacterial GlmU enzyme – biochemical, glucosamine-1-phosphate acetyltransferase (AID 1376;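 note: 0% = complete reaction with vehicle and 100% = reaction without substrate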)). Conditions: M. tuberculosis GlmU acetyltransferase enzyme assay; active compounds read high;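 tested at 30 µM in the primary screen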.

| Compound | inhibition |
| --- | --- |
| COc1cccc(C(=O)NCC2(N3CCCCC3)CCCCC2)c1 | inactive: -1.13% |
| O=C(OC1CN2CCC1CC2)C(CO)(c1ccccc1)c1ccccc1 (stereo not given) | inactive: 7.02% |
| CN(C)c1cccc(C(=O)NCC2(N(C)C)CCCCC2)c1 | inactive: 0.79% |
| O=C(NCC1(N2CCCCC2)CCCCC1)c1cc([N+](=O)[O-])ccc1Cl | inactive: -4.29% |
| CCN(CC)CC(C)C(C)OC(=O)C(O)(c1ccccc1)c1ccccc1 (stereo not given) | inactive: 1.21% |
| CC(C)N1C(=O)CC2(CCN(CCOC(=O)C(O)(c3ccccc3)c3ccccc3)CC2)C1=O | inactive: -4.42% |
| CN(C)C1CCCC1OC(=O)C(O)(c1ccccc1)c1ccccc1 (stereo not given) | inactive: -2.65% |
| Cc1ccccc1C(=O)NCC1(N2CCCCC2)CCCCC1 | inactive: -4.25% |
| C=CCN1CCN(CCOC(=O)C(O)(c2ccccc2)c2ccccc2)CC1 | inactive: 6.17% |
| CCN1CCCC(OC(=O)C2(O)c3ccccc3C=Cc3ccccc32)C1 (stereo not given) | inactive: -9.01% |
